In ChEMBL document CHEMBL3885861, “Open TG-GATES”:

Key:
Rattus norvegicus [1] = species on record: Rattus norvegicus; assay: Open TG-GATES - Regimen: Single; type: toxicity, organism-based, Sprague-Dawley; design: regimen Single, gender Male, age 6 weeks; settings: in vivo, po, tissue Plasma, route gavage
Rattus norvegicus [2] = species on record: Rattus norvegicus; assay: Open TG-GATES - Regimen: Daily Repeat; type: toxicity, organism-based, Sprague-Dawley; design: regimen Daily Repeat, gender Male, age 6 weeks; settings: in vivo, po, tissue Plasma, route gavage
[3] = 0 mg/kg, 3 h, dose level Control
[4] = 0 mg/kg, 6 h, dose level Control
[5] = 0 mg/kg, 9 h, dose level Control
[6] = 0 mg/kg, 24 h, dose level Control
[7] = 0 mg/kg, 72 h, dose level Control, time 3 day
[8] = 0 mg/kg, […], dose level Control, time 7 day
[9] = 0 mg/kg, […], dose level Control, time 14 day
[10] = 0 mg/kg, […], dose level Control, time 28 day
[11] = 100 mg/kg, 24 h, dose level Low
[12] = 300 mg/kg, 3 h, dose level Middle
[13] = 300 mg/kg, 6 h, dose level Middle
[14] = 300 mg/kg, 9 h, dose level Middle
[15] = 300 mg/kg, 24 h, dose level Middle
[16] = 1000 mg/kg, 3 h, dose level High
[17] = 1000 mg/kg, 6 h, dose level High
[18] = 1000 mg/kg, 9 h, dose level High
[19] = 1000 mg/kg, 24 h, dose level High

`CSc1ccc2c(c1)N(CCC1CCCCN1C)c1ccccc1S2` (stereo not drawn) [THIORIDAZINE] gave an A/G (Rattus norvegicus [1]; [3]) of 2.3, an A/G (Rattus norvegicus [1]; [4]) of 2.2 and an A/G (Rattus norvegicus [1]; [5]) of 2.5. It also gave an A/G (Rattus norvegicus [1]; [6]) of 2.2, an A/G (Rattus norvegicus [1]; 10 mg/kg, 3 h, dose level Low) of 2.4 and a Cl (Rattus norvegicus [1]; 10 mg/kg, 3 h, dose level Low) of 103.8 meq/L. The A/G (Rattus norvegicus [1]; 10 mg/kg, 6 h, dose level Low) was 2.2, the A/G (Rattus norvegicus [1]; 10 mg/kg, 9 h, dose level Low) was 2.4 and the A/G (Rattus norvegicus [1]; 10 mg/kg, 24 h, dose level Low) was 2.4. It also gave an A/G (Rattus norvegicus [1]; 30 mg/kg, 3 h, dose level Middle) of 2.4, an A/G (Rattus norvegicus [1]; 30 mg/kg, 6 h, dose level Middle) of 2.3 and an A/G (Rattus norvegicus [1]; 30 mg/kg, 9 h, dose level Middle) of 2. For the same compound, the A/G (Rattus norvegicus [1]; 30 mg/kg, 24 h, dose level Middle) was 2.1, the A/G (Rattus norvegicus [1]; 100 mg/kg, 3 h, dose level High) was 2.2 and the A/G (Rattus norvegicus [1]; 100 mg/kg, 6 h, dose level High) was 2.2. For the same compound, the A/G (Rattus norvegicus [1]; 100 mg/kg, 9 h, dose level High) was 2.2, the A/G (Rattus norvegicus [1]; 100 mg/kg, 24 h, dose level High) was 2.3 and the A/G (Rattus norvegicus [2]; [7]) was 2.4. For the same compound, the A/G (Rattus norvegicus [2]; [8]) was 2.1, the A/G (Rattus norvegicus [2]; [9]) was 1.8 and the A/G (Rattus norvegicus [2]; [10]) was 1.8. It also gave an A/G (Rattus norvegicus [2]; 10 mg/kg, 72 h, dose level Low, time 3 day) of 1.9, an A/G (Rattus norvegicus [2]; 10 mg/kg, […], dose level Low, time 7 day) of 2.1 and an A/G (Rattus norvegicus [2]; 10 mg/kg, […], dose level Low, time 14 day) of 1.9. It also gave an A/G (Rattus norvegicus [2]; 10 mg/kg, […], dose level Low, time 28 day) of 1.9, an A/G (Rattus norvegicus [2]; 30 mg/kg, 72 h, dose level Middle, time 3 day) of 2.2 and an A/G (Rattus norvegicus [2]; 30 mg/kg, […], dose level Middle, time 7 day) of 2.1. The A/G (Rattus norvegicus [2]; 30 mg/kg, […], dose level Middle, time 14 day) was 2, the A/G (Rattus norvegicus [2]; 30 mg/kg, […], dose level Middle, time 28 day) was 1.9 and the A/G (Rattus norvegicus [2]; 100 mg/kg, 72 h, dose level High, time 3 day) was 2.1. The A/G (Rattus norvegicus [2]; 100 mg/kg, […], dose level High, time 7 day) was 2, the A/G (Rattus norvegicus [2]; 100 mg/kg, […], dose level High, time 14 day) was 1.9 and the A/G (Rattus norvegicus [2]; 100 mg/kg, […], dose level High, time 28 day) was 1.9.
In the case of `Clc1ccccc1CN1CCc2sccc2C1` [TICLOPIDINE], the BUN (Rattus norvegicus [1]; [3]) is reported as 11.6 mg/dL, the Ca (Rattus norvegicus [1]; [3]) is reported as 10.7 mg/dL and the TG (Rattus norvegicus [1]; [3]) is reported as 50 mg/dL. For the same compound, the BUN (Rattus norvegicus [1]; [4]) was 9.8 mg/dL, the Ca (Rattus norvegicus [1]; [4]) was 10.7 mg/dL and the TG (Rattus norvegicus [1]; [4]) was 41 mg/dL. For the same compound, the BUN (Rattus norvegicus [1]; [5]) was 10.4 mg/dL, the Ca (Rattus norvegicus [1]; [5]) was 10.4 mg/dL and the TG (Rattus norvegicus [1]; [5]) was 34.2 mg/dL. For the same compound, the BUN (Rattus norvegicus [1]; [6]) was 13.6 mg/dL, the Ca (Rattus norvegicus [1]; [6]) was 10.7 mg/dL and the TG (Rattus norvegicus [1]; [6]) was 68 mg/dL. For the same compound, the BUN (Rattus norvegicus [1]; 100 mg/kg, 3 h, dose level Low) was 10 mg/dL, the Ca (Rattus norvegicus [1]; 100 mg/kg, 3 h, dose level Low) was 10.6 mg/dL and the TG (Rattus norvegicus [1]; 100 mg/kg, 3 h, dose level Low) was 57.8 mg/dL. The BUN (Rattus norvegicus [1]; 100 mg/kg, 6 h, dose level Low) was 10.6 mg/dL, the Ca (Rattus norvegicus [1]; 100 mg/kg, 6 h, dose level Low) was 10.4 mg/dL and the TG (Rattus norvegicus [1]; 100 mg/kg, 6 h, dose level Low) was 45 mg/dL. It also gave a BUN (Rattus norvegicus [1]; 100 mg/kg, 9 h, dose level Low) of 11.2 mg/dL, a Ca (Rattus norvegicus [1]; 100 mg/kg, 9 h, dose level Low) of 10.5 mg/dL and a TG (Rattus norvegicus [1]; 100 mg/kg, 9 h, dose level Low) of 36.8 mg/dL. The BUN (Rattus norvegicus [1]; [11]) was 14.4 mg/dL, the Ca (Rattus norvegicus [1]; [11]) was 10.7 mg/dL and the TG (Rattus norvegicus [1]; [11]) was 76.2 mg/dL. For the same compound, the BUN (Rattus norvegicus [1]; [12]) was 10.6 mg/dL, the Ca (Rattus norvegicus [1]; [12]) was 10.3 mg/dL and the TG (Rattus norvegicus [1]; [12]) was 31 mg/dL. It also gave a BUN (Rattus norvegicus [1]; [13]) of 10.4 mg/dL, a Ca (Rattus norvegicus [1]; [13]) of 10.4 mg/dL and a TG (Rattus norvegicus [1]; [13]) of 33 mg/dL. It also gave a BUN (Rattus norvegicus [1]; [14]) of 10.2 mg/dL, a Ca (Rattus norvegicus [1]; [14]) of 10.2 mg/dL and a TG (Rattus norvegicus [1]; [14]) of 27.4 mg/dL. For the same compound, the BUN (Rattus norvegicus [1]; [15]) was 13.4 mg/dL, the Ca (Rattus norvegicus [1]; [15]) was 10.8 mg/dL and the TG (Rattus norvegicus [1]; [15]) was 86.2 mg/dL. For the same compound, the BUN (Rattus norvegicus [1]; [16]) was 10 mg/dL, the Ca (Rattus norvegicus [1]; [16]) was 10.3 mg/dL and the TG (Rattus norvegicus [1]; [16]) was 34.6 mg/dL. It also gave a BUN (Rattus norvegicus [1]; [17]) of 9.8 mg/dL, a Ca (Rattus norvegicus [1]; [17]) of 10.2 mg/dL and a TG (Rattus norvegicus [1]; [17]) of 28.2 mg/dL. It also gave a BUN (Rattus norvegicus [1]; [18]) of 10.6 mg/dL, a Ca (Rattus norvegicus [1]; [18]) of 10.4 mg/dL and a TG (Rattus norvegicus [1]; [18]) of 46.6 mg/dL. It also gave a BUN (Rattus norvegicus [1]; [19]) of 10.8 mg/dL, a Ca (Rattus norvegicus [1]; [19]) of 10.5 mg/dL and a TG (Rattus norvegicus [1]; [19]) of 60 mg/dL. For the same compound, the Ca (Rattus norvegicus [2]; [7]) was 10.8 mg/dL, the TG (Rattus norvegicus [2]; [7]) was 101.8 mg/dL and the Ca (Rattus norvegicus [2]; [8]) was 10.7 mg/dL. For the same compound, the Ca (Rattus norvegicus [2]; [9]) was 10.6 mg/dL, the Ca (Rattus norvegicus [2]; [10]) was 10.8 mg/dL and the Ca (Rattus norvegicus [2]; 30 mg/kg, 72 h, dose level Low, time 3 day) was 10.8 mg/dL. It also gave a Ca (Rattus norvegicus [2]; 30 mg/kg, […], dose level Low, time 7 day) of 10.6 mg/dL, a Ca (Rattus norvegicus [2]; 30 mg/kg, […], dose level Low, time 14 day) of 10.7 mg/dL and a Ca (Rattus norvegicus [2]; 30 mg/kg, […], dose level Low, time 28 day) of 10.5 mg/dL. It also gave a Ca (Rattus norvegicus [2]; 100 mg/kg, 72 h, dose level Middle, time 3 day) of 10.9 mg/dL, a Ca (Rattus norvegicus [2]; 100 mg/kg, […], dose level Middle, time 7 day) of 10.7 mg/dL and a Ca (Rattus norvegicus [2]; 100 mg/kg, […], dose level Middle, time 14 day) of 10.5 mg/dL. For the same compound, the Ca (Rattus norvegicus [2]; 100 mg/kg, […], dose level Middle, time 28 day) was 10.7 mg/dL, the Ca (Rattus norvegicus [2]; 300 mg/kg, 72 h, dose level High, time 3 day) was 10.2 mg/dL and the Ca (Rattus norvegicus [2]; 300 mg/kg, […], dose level High, time 7 day) was 10.7 mg/dL. For the same compound, the Ca (Rattus norvegicus [2]; 300 mg/kg, […], dose level High, time 14 day) was 10.6 mg/dL and the Ca (Rattus norvegicus [2]; 300 mg/kg, […], dose level High, time 28 day) was 10.8 mg/dL.
